Test results taken from ChEMBL document CHEMBL1136297, “Synthesis and pharmacological evaluation of (Z)-9-(heteroarylmethylene)-7-azatricyclo[4.3.1.0(3,7)]decanes: thiophene analogues as potent norepinephrine transporter inhibitors” (Bioorg Med Chem Lett, 2003).

By UniProt entry, the sequences of proteins in these tests, tags left out.
UniProt P31652, whole entry: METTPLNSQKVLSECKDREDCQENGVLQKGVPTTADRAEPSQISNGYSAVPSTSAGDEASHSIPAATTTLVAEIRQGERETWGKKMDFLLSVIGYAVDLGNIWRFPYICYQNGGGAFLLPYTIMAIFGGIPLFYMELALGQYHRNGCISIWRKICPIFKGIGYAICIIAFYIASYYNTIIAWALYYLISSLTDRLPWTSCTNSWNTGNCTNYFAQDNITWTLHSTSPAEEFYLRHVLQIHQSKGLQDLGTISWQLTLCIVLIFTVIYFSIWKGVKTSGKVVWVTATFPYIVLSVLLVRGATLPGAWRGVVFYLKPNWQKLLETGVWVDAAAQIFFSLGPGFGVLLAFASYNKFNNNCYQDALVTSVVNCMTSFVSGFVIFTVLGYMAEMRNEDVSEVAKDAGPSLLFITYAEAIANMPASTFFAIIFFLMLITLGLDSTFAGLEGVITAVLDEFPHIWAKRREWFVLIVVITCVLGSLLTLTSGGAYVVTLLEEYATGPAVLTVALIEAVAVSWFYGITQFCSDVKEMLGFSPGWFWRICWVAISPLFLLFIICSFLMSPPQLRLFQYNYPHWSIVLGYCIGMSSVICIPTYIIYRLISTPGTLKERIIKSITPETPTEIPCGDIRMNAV

Target: Sodium-dependent serotonin transporter (Rattus norvegicus, UniProt P31652)
Experiment: Ability to inhibit reuptake of serotonin ([3H]5-HT) at serotonin transporter of rat midbrian

`CNCC[C@@H](Oc1ccccc1C)c1ccccc1` [ATOMOXETINE] was tested, and the Ki was 77 nM.
